Measured values: patent US8846687B2, “Pyrazine compounds as PI3 kinase inhibitors” (Novartis AG, priority 2008, dated 2014)

Chains of the proteins cited; added tags and fusions are not shown. Residues count along the entry.
UniProt P48736, 38-1102: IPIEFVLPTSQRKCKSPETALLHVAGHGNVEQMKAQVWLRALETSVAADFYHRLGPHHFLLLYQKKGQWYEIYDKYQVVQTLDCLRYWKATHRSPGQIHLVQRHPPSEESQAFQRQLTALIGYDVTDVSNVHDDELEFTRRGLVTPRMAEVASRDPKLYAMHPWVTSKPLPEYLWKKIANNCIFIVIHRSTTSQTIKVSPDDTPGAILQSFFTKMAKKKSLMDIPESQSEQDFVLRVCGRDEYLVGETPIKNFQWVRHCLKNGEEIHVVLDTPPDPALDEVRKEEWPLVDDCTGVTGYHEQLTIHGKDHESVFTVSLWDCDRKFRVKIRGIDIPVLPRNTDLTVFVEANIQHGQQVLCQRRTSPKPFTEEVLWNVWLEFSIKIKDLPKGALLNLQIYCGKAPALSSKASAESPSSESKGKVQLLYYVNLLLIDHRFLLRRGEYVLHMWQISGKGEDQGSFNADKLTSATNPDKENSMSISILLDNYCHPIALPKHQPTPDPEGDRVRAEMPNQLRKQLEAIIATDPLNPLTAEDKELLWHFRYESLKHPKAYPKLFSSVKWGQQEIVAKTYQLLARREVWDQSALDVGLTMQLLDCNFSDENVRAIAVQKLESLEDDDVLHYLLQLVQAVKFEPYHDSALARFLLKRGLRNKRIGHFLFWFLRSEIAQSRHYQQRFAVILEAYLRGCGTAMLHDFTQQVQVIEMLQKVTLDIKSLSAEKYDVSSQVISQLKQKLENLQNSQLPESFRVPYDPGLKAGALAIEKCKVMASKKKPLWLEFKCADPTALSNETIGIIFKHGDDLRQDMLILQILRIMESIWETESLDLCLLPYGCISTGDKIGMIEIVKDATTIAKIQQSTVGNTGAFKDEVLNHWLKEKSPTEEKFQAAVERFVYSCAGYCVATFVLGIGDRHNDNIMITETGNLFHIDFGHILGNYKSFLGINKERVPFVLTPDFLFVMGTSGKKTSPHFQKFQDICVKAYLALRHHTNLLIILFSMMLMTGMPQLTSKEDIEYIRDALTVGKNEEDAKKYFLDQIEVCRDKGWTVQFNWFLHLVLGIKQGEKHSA

Biological target: recombinant GST-p110γ (human PI 3-Kγ) (Homo sapiens, UniProt P48736)
Test: PI 3-kinase gamma in vitro kinase assay (Scintillation Proximity Assay)

- IC50: 30 nM
SMILES: CN1CCN(S(=O)(=O)c2cccc(-c3cnc(N)c(C(=O)c4cccnc4)c3)c2)CC1 [Example 92, {2-Amino-5-[3-(4-methyl-piperazine-1-sulfonyl)-phenyl]-pyridin-3-yl}-pyridin-2-yl-methanone]
